The values below are quoted from earlier work in patent publication US20220331213A1, “ANTIMICROBIAL COMPOSITIONS COMPRISING A BENZOIC ACID ANALOG AND ACID PH BUFFERS” (eHealth Nexus LLC, priority 2021, published 2022).

Turning to copper gluconate, where the note is “ethanol”, the solubility in ethanol entry is listed as “insoluble”. For the same substance, the solubility in water result (water) is reported as “easily soluble”.
